For one test, the target named is T1, p110β^E1051K (Homo sapiens, UniProt P42338, E1051K).
T1 construct: gene PIK3CB; GST-His6-p110β+myc-p85α; with p85α (PIK3R1)
In words: ADP-Glo lipid kinase assay at Km [ATP]; Ki from IC50 by Cheng-Prusoff. The format is biochemical. The conditions noted are these: read-out: TGX-221 ^b / Ki. (In general: ADP-Glo turns the ADP formed in a reaction into a luminescent signal.)

By UniProt entry, the sequences of proteins in these tests, tags left out.
UniProt P42338, whole entry E1051K: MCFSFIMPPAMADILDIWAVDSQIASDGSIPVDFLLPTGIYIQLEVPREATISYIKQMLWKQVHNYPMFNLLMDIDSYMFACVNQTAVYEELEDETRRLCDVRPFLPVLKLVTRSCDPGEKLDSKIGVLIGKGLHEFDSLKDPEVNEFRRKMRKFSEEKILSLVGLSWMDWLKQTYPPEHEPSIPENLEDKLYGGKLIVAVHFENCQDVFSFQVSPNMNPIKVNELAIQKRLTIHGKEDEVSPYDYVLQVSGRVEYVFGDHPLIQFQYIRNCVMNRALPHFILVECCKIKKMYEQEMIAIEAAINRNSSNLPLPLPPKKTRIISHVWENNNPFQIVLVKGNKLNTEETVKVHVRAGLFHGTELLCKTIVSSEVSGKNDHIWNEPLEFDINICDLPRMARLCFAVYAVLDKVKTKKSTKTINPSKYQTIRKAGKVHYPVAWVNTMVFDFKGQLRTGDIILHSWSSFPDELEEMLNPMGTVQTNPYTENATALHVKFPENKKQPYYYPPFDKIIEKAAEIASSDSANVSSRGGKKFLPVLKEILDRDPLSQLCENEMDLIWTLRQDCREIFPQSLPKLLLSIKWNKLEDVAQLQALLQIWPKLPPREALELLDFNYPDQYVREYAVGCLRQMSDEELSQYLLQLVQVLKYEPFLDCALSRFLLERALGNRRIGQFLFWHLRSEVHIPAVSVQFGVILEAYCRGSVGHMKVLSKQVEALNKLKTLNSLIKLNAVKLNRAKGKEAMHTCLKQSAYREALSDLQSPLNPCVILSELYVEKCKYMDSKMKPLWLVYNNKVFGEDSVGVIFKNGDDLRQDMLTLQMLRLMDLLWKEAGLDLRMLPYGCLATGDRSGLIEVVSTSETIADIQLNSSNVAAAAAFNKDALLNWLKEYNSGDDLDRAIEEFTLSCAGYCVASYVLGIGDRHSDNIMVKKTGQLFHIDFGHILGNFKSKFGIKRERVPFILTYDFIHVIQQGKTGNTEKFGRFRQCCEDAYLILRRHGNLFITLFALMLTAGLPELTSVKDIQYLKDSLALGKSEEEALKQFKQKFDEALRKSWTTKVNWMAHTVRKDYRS

For the next test, the target named is T2, p110β (Homo sapiens, UniProt P42338).
T2 construct: gene PIK3CB; GST-His6-p110β+myc-p85α; with p85α (PIK3R1)
The test is described as above. The format is biochemical. The conditions noted are these: read-out: TGX-221 ^b / Ki.

As for `Cc1cc(C(C)Nc2ccccc2)c2nc(N3CCOCC3)cc(=O)n2c1` (racemic) [TGX-221], the Ki on p110β^E1051K was 9.32 ± 3.45 nM; on p110β, 12.3 ± 1.47 nM.

(Values after PMC5740215, “Functional characterization of a novel somatic oncogenic mutation of PIK3CB” (Signal Transduction and Targeted Therapy, 2017).)
